Laboratory results taken from patent US20220381657A1, “METHOD FOR PREPARING BIOLOGICAL MATERIAL HAVING EXCELLENT LIGHT-TRANSMITTING PROPERTY” (RIKEN, priority 2016, published 2022).

Tested on: fixed brain tissue suspension
Assay: 1st delipidation assay: solubilization of fixed brain tissue suspension, turbidity at 600 nm
Set-up: species or system mice
Details: Table 1; 10 wt % chemical, fixed mouse brain suspension, 37° C. overnight; PBS = 1.000

Row | Substance | 1st delipidation assay Relative OD600
1 | Decyldimethyl(3- sulfopropyl)ammonium [#0651] | 0.244
2 | Dodecyldimethyl(3- sulfopropyl)ammonium [#0661] | 0.258
